# Measured values: patent US20220362153A1, “COMPOSITIONS AND METHODS FOR PULMONARY SURFACTANT-BIOMIMETIC NANOPARTICLES” (priority 2019, published 2022)
# Test system: pulmonary cells (AMs, AECs, DCs)
# Details: mouse, in vivo
substance,measurement,setting,value
poly IC,total AECs that took up poly IC in the lung,,0.4%
same,total DCs that took up poly IC in the lung,,4%
same,uptake by MLN and nasal tissue DCs and nasal epithelial cells,,rarely internalized poly IC
same,poly IC remaining within AMs,12 h,> 97%
